Laboratory results reported in the kinase profiling compilation of Christmann-Franck et al. (2016).

Amino acid sequences for entries named in this document (tags omitted).
FLT3 (human), P36888, UniProt P36888, whole entry, looked up, stated change not applied: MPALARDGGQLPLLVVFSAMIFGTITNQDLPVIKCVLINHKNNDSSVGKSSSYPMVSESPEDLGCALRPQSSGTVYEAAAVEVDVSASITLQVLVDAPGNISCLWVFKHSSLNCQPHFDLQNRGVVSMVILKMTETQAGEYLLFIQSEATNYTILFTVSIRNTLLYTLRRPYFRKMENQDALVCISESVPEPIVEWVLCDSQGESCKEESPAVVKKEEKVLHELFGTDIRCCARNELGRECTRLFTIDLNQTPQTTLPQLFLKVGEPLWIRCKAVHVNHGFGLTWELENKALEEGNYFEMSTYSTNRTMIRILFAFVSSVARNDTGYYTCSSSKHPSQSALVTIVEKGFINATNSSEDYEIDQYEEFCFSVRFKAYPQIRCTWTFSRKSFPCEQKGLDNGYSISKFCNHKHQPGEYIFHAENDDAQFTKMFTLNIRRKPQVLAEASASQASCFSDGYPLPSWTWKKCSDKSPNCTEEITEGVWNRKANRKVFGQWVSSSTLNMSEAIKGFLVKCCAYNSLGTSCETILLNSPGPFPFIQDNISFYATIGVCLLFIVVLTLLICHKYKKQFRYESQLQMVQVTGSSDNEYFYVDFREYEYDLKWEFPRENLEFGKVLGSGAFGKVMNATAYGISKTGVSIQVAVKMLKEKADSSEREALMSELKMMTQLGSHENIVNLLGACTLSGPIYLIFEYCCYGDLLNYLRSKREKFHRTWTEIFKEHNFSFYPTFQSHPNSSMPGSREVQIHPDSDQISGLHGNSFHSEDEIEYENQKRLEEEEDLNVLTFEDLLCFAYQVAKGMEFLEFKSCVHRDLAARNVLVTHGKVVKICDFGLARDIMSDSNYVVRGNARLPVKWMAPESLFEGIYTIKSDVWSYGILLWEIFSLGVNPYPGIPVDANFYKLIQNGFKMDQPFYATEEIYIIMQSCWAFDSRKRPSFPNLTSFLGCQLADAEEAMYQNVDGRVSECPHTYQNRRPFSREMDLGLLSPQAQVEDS

Molecular target: FLT3 (human), P36888 [ITD]
Assay: KINOMEscan competition binding

pKd: 7.37
Structure (SMILES): CO[C@@H]1[C@H](N(C)C(=O)c2ccccc2)C[C@H]2O[C@]1(C)n1c3ccccc3c3c4c(c5c6ccccc6n2c5c31)C(=O)NC4O (stereo partly specified)

pKd: −log10 of the molar value.
